Tested on: SOD1^G93A mice
Assay: In vivo ALS model muscle physiology study with 2A10 and riluzole
Set-up: species or system mouse
Settings: 30 mg/kg (2A10 HA weekly i.p.; riluzole in drinking water from day 65), vs SOD-B vehicle
Procedure: Fresh solutions were prepared once a week with the total consumed volume measured in order to ensure a constant daily and weekly dose.

Nc1nc2ccc(OC(F)(F)F)cc2s1 [Riluzole, 2-Amino-6-(trifluoromethoxy)benzothiazole]
EDL motor unit number estimation (MUNE), high dose: clearly efficacious
